This is an account of results in PubChem BioAssay AID2069 (Sanford-Burnham Center for Chemical Genomics, 2009).

This is a selection; strong and weak results do not stand in their true shares. Active and inactive are the calls of the source. No stated cut-off is given here; in the data, active means inhibition above about 30%; inactive means the rest.

For orientation: inhibition means the drop in the measured response relative to a control, in per cent.

The assay can be described thus: fluorescence readout artefact check – biochemical, HTRF, uHTS, artefact control for SUMOylation inhibitor project, confirmation (AID 2069). Conditions: HTRF interference counterscreen, at 35 µM, stronger effect = higher value. On the technique in general: Time-resolved FRET reads energy transfer from a long-lived donor to a nearby acceptor.
On to `Nc1cccc2c([As](=O)(O)O)cccc12`, for which the inhibition was inactive: 27.9%. Next, `Nc1cccc2ccc([As](=O)(O)O)cc12`: inactive: 25%.
